The target of the assay is human mAChR M1 (Homo sapiens, UniProt P11229). Kind of assay: mAChR M1 cell-based functional assay: calcium mobilization, positive allosteric modulator mode (increase in EC20 acetylcholine response). The settings on record: Table 2. The text has this: a. Cell Lines Expressing Muscarinic Acetylcholine Receptors
Chinese hamster ovary (CHO-K1) cells stably expressing rat (r)M1 were purchased from the American Type Culture Collection and cultured according to their indicated protocol. CHO cells stably expressing human (h)M2, hM3, and hM5 were described previously (Levey, et al., 1991); hMi and hM4 cDNAs were purchased from Missouri S&T cDNA Resource; rM4 cDNA was provided by T. I. Bonner (National Institutes of Health, Bethesda, Md.). rM2 and rM3 were cloned from a rat brain cDNA library and sequence verified. hMi, rM2, rM3, hM4, and rM4 cDNAs were used to stably transfect CHO-K1 cells purchased from the American Type Culture Collection using Lipofectamine2000. […]
Calcium flux was measured using the Functional Drug Screening System (FDSS) 6000 (Hamamatsu Corporation, Tokyo, Japan) as an increase in the fluorescent static ratio. […] Agonist activity was analyzed as a concentration-dependent increase in calcium mobilization upon compound addition. Positive allosteric modulator activity was analyzed as a concentration-dependent increase in the EC20 acetylcholine response. Antagonist activity was analyzed as a concentration-dependent decrease in the EC80 acetylcholine response. […]
A general note: A change in cytosolic calcium serves as a functional read-out for many receptors and channels.

Sequences of proteins named here, by UniProt entry; tags and fusion partners are left off. A change or cut given only in a name is not applied to a line headed by its entry.
UniProt P11229: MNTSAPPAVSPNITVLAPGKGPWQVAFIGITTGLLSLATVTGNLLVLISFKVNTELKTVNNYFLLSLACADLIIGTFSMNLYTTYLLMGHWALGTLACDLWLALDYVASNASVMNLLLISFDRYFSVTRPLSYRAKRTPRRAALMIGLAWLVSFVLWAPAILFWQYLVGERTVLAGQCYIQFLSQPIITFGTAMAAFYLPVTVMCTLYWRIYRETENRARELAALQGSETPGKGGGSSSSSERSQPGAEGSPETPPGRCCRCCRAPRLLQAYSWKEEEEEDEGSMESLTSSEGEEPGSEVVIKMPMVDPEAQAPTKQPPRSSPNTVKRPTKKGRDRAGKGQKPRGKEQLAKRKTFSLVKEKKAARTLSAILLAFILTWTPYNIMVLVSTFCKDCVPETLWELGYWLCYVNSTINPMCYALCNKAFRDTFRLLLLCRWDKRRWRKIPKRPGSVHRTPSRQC

What is called EC50 is the concentration that produces a half-maximal response. With “N-[(1S,2S)-2-hydroxycyclohexyl]-7-(4-[(4-2-ylphenyl)methyl]thieno[3,2-b]pyridine-5-carboxamide [Compound 295]”, the concentration for a half-maximal effect (EC50) came to 0.0525 µM.

The values above are taken from US11111251B2, “Positive allosteric modulators of the muscarinic acetylcholine receptor M1” (Vanderbilt University, priority 2016, dated 2021).
